4 compounds from ChEMBL document CHEMBL2407059, “Discovery and characterization of carbamothioylacrylamides as EP2 selective antagonists” (ACS Med Chem Lett, 2013) can be followed below.

Experiment [1] is filed under the species Homo sapiens. Description: Selectivity index, ratio of KB for human EP4 receptor to KB for human EP2 receptor.
Experiment [2] is filed under the species Homo sapiens. The experiment is described as follows: Selectivity index, ratio of KB for human IP receptor to KB for human EP2 receptor.
The species entered for experiment [3] is Homo sapiens. The experiment is described as follows: Selectivity index, ratio of KB for human DP1 receptor to KB for human EP2 receptor.

Consider `COc1ccc(NS(=O)(=O)c2ccc(NC(=S)NC(=O)/C=C/c3ccc(C)cc3)cc2)nn1`, for which the Selectivity Index in the experiment listed under Homo sapiens [1] was determined as 340. For `CCc1nnc(NS(=O)(=O)c2ccc(NC(=S)NC(=O)/C=C/c3ccc(F)cc3)cc2)s1`, the Selectivity Index in the experiment listed under Homo sapiens [2] was found to be 22; in the experiment listed under Homo sapiens [3], 16700; in the experiment filed under Homo sapiens [1], 443.

For the compound `CCc1nnc(NS(=O)(=O)c2ccc(NC(=S)NC(=O)/C=C/c3ccc(OC)cc3)cc2)s1`, the Selectivity Index in the experiment filed under Homo sapiens [3] is 311; in the experiment listed under Homo sapiens [1] it was 340. Consider `COc1cc(NS(=O)(=O)c2ccc(NC(=S)NC(=O)c3sc4cc(F)ccc4c3Cl)cc2)nc(OC)n1`, for which the Selectivity Index in the experiment filed under Homo sapiens [1] stood at 7.
